The test system of experiment [1] is A549. The experiment can be described thus: Influence of PARP-1 cellular activity on NAD+ levels at a concentration of 25 uM of the compound. Conditions: Homo sapiens.
Experiment [2] deals with A549. Briefly: Influence of PARP-1 cellular activity in human lung carcinoma A549 cells on %ADP Polymer formation at a concentration of 25 uM of the compound.

On to `CN(N=O)C(=N)N[N+](=O)[O-]`, for which the NAD+ level with A549 [1] came out at 21%. This compound also displayed an ADP formation in the experiment on A549 [2] of 100%.

Regarding `CN(N=O)C(=N)N[N+](=O)[O-].O=C1NCCc2c(-c3ccccc3)[nH]c3cccc1c23`, in the experiment on A549 [1], the NAD+ level amounted to 81%. Moreover, the ADP formation in the experiment with A549 [2] was 13%.

Compound `CN(C)Cc1ccc(-c2[nH]c3cccc4c3c2CCNC4=O)cc1.CN(N=O)C(=N)N[N+](=O)[O-]` came in with an NAD+ level in the experiment on A549 [1] of 87%. For the same compound, the ADP formation with A549 [2] worked out at 6%.

`CN(N=O)C(=N)N[N+](=O)[O-].Cn1c(-c2ccccc2)c2c3c(cccc31)C(=O)NCC2` showed an NAD+ level in the experiment on A549 [1] of 24%. Moreover, the ADP formation in the experiment with A549 [2] amounted to 105%.

For the origin of these results see ChEMBL document CHEMBL1136008, “Novel tricyclic poly(ADP-ribose) polymerase-1 inhibitors with potent anticancer chemopotentiating activity: design, synthesis, and X-ray cocrystal structure” (J Med Chem, 2002).
